# Reference: PubChem BioAssay AID720523 (National Center for Advancing Translational Sciences (NCATS), 2013)
# This is a selection; strong and weak results do not stand in their true shares. Results filed as inconclusive are left out. Active and inactive are the calls of the source. The call rests on the fitted dose curve; in most records, active means well fitted inhibition curve with a large enough effect; inconclusive means small, poorly fitted or top-dose-only effect; inactive means flat fitted curve, though single readings scatter.
# Assay: Nrf2 qHTS screen for inhibitors: A549 ARE-Fluc Cytotoxicity Counterscreen for Hit Validation;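 further: cells exposed to compounds for 18 to 24 hours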
# Conditions: A549 ARE-Fluc cells; at 46.1 µM (top of the series)
# From the text: Nrf2 is a transcription factor that maintains cellular redox homoestasis and protects cells from xenobiotics. Nrf2 binds to the antioxidant response element (ARE) to induce gene expression of a broad spectrum of genes that encode for antioxidants. […] Finding a small molecule that act as an inhibitor of Nrf2 function would represent a novel therapeutic target that could lead to improvement in survival of patients undergoing chemo- and/or radio- therapy.
# In collaboration with the Biswal laboratory, a cell based, luminescence assay (BugLite) was developed to detect the Nrf2 activity using the A549 ARE_Fluc cells (AID 504648). This assay was coupled with a fluorescence based (CellTiter Fluor) cytotoxicity assay to identify and exclude toxic compounds. […] The data herein is the result of the CellTiter Fluor assay where decrease in fluorescence signal = cytotoxicity. […]
# Five uL of cell suspension was dispensed into 1536-well white TC-treated plate using the Kalypsys dispenser to achieve a density of 5000 cells/well in all columns except column 1. […] The fluorescence signal was read using the PerkinElmer ViewLux plate reader (Ex = 405 nm /Em = 525 nm) for a 3 second exposure. […] A second ViewLux read (40 sec exposure) was performed to detect the luminescence signal. Cytotoxicity was assessed through the first fluorescent read while biochemical activity against Nrf2 was measured in the luminescent read. […]
# On the % scale 0 is the no-effect control and ±100 the full control effect.
row,SMILES,"activity change, negative = cytotoxicity"
1,CC1=CC2OC3CC4OC(=O)C=CC=CC(=O)OCCC(C)C(O)C(=O)OCC2(CC1O)C4(C)C31CO1 (stereo unspecified),inactive: 63.1%
